Assays:
[1] = target: misTTR antibody; assay: competition ELISA: folded TTR in solution against plate-bound GdnHCl-unfolded TTR
[2] = target: misTTR antibody; assay: competition ELISA: suspended TTR fibrils against plate-bound GdnHCl-unfolded TTR for misTTR antibody
[3] = target: misTTR antibody; assay: competition ELISA: monomeric TTR in solution against plate-bound GdnHCl-unfolded TTR for 1 ug/mL misTTR antibody

Substance: folded tetrameric TTR (from UniProt P02766 21-147)
- highest concentration without binding [1]: > 4 µM

Substance: TTR amyloid fibrils (from UniProt P02766 21-147)
- EC50 [2]: 800 nM

Substance: monomeric TTR (from UniProt P02766 21-147)
- EC50 [3]: 63 nM

From US20170089929A1
